Species: Mus musculus
Assay: Protective index, ratio of TD50 for Swiss mouse to ED50 for Swiss mouse by maximal electroshock-induced seizures test
Type: functional
Outline: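 Protective index was calculated as TD50 (rotarod neurotoxicity) divided by ED50 (MES protection). Both values came from i.p. dosing in Swiss mice, using groups of 10 per dose, and were computed by the trimmed Spearman-Karber method.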

For `NC(=O)N1c2ccccc2C=Cc2ccccc21` [CARBAMAZEPINE], the PI was 8.1.

Reference: ChEMBL document CHEMBL1759940, “Synthesis and anticonvulsant activity of 8-alkoxy-5,6-dihydro-4H-[1,2,4]triazolo[4,3-a][1]benzazepin-1-one derivatives” (Eur J Med Chem, 2011)
